# Values quoted from earlier work, collected in US20130273057A1, “METHODS AND COMPOSITIONS FOR THE TREATMENT AND DIAGNOSIS OF VASCULAR INFLAMMATORY DISORDERS OR ENDOTHELIAL CELL DISORDERS” (Beth Israel Deaconess Medical Center, Inc., priority 2007, published 2013).
# Amino acid sequences for entries named in this document (tags omitted). Residues count along the entry.
# UniProt P35968, 20-1356: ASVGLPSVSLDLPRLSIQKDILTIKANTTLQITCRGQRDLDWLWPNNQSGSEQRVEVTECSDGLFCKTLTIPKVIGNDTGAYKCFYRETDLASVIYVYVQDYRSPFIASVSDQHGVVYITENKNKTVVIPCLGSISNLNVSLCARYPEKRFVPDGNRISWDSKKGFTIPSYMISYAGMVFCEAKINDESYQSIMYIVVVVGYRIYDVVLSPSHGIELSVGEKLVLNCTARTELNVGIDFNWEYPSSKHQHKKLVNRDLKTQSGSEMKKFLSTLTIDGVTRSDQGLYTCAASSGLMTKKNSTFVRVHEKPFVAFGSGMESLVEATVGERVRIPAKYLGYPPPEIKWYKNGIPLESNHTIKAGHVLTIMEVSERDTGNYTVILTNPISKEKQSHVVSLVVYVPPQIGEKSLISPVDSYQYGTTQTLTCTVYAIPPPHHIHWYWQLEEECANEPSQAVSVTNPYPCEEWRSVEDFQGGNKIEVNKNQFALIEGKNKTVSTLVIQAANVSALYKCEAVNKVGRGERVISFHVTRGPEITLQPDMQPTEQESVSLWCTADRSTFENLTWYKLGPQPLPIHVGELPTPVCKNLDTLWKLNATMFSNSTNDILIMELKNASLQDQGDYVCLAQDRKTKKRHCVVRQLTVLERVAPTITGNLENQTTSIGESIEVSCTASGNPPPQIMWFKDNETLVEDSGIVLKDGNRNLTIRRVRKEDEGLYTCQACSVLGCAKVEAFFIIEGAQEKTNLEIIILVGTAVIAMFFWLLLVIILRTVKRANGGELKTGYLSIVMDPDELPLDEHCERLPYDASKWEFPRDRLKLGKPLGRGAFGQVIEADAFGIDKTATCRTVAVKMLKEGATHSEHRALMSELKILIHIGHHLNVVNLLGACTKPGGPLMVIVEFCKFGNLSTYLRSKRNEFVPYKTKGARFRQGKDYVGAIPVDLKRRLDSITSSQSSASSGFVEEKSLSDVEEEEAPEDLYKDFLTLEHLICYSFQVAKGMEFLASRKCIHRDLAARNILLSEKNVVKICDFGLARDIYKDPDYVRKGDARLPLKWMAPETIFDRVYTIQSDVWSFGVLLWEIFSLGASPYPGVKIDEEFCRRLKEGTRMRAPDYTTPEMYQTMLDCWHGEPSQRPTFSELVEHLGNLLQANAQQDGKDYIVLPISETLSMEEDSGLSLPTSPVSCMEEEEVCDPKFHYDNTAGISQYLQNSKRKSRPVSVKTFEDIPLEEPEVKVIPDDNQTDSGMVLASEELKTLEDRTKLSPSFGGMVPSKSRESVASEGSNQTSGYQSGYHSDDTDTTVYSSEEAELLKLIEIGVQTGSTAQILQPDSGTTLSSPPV
# pKd: −log10 of the molar value.
# Molecular target: KDR (Homo sapiens, UniProt P35968)
# Details: read-out: Kd of VEGF binding to KDR; cited from earlier work
substance,measurement,value
VEGF,pKd,10.12
